Reference: US20090312437A1, “Anthraquinones and Analogs from Rhuem palmatum for Treatment of Estrogen Receptor Beta-Mediated Conditions” (Bionovo, Inc., A Delaware Corporation, priority 2008, published 2009)

By UniProt entry, the sequences of proteins in these tests, tags left out.
UniProt P03372, whole entry: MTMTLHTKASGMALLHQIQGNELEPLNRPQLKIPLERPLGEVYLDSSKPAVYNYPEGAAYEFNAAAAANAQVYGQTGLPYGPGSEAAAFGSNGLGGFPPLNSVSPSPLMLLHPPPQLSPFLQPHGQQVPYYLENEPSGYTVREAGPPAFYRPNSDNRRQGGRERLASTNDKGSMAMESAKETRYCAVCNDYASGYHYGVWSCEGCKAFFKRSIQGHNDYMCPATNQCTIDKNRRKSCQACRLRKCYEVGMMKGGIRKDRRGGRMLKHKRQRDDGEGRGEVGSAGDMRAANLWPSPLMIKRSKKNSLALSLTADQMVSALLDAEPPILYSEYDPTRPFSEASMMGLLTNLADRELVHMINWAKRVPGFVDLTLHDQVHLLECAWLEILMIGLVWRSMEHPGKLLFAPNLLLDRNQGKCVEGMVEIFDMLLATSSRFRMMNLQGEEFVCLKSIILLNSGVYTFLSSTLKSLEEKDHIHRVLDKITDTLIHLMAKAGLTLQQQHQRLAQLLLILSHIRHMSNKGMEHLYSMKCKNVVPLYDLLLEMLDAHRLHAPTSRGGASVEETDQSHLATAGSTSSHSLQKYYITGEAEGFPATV
UniProt Q92731, whole entry: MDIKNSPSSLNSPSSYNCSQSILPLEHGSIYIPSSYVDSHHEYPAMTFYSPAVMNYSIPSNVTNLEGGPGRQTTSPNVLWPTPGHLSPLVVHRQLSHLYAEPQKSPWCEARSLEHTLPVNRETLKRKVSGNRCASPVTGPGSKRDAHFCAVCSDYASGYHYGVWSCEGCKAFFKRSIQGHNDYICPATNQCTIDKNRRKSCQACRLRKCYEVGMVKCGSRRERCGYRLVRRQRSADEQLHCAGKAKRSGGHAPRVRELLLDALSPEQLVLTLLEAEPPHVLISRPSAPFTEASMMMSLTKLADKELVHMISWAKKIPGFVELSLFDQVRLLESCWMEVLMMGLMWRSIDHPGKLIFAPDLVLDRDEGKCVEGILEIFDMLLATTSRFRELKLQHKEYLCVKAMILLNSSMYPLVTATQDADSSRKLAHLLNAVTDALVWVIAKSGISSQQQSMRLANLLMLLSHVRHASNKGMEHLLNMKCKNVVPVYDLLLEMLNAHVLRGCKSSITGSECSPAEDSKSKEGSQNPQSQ

How the values were obtained:
ERα [1] = target: T1, ERα (Homo sapiens, UniProt P03372); conditions: TNF-RE tkLuc, U2OS cells
ERα [2] = target: T1, ERα; experiment: ERE-tk-Luc luciferase transient transfection assay in U2OS cells with ERα; assay type: cell-based; set-up: expressed in transfected cells; host or cells: U2OS (human osteosarcoma); conditions: ERα expression vector
ERβ = ERβ (Homo sapiens, UniProt Q92731); experiment: ERE-tk-Luc luciferase transient transfection assay in U2OS cells with ERβ

- repression of TNF-α activation of TNF-RE in the presence of ERα (ERα [1]): not ERα
- activation of ERE-tk-Luc in the presence of ERα (ERα [2]): not significantly
- activation of ERE-tk-Luc in the presence of ERα (ERα [2]; listed as emodin (1)): not ERα
- stimulation of expression of ERE-tk-luc (fold), compound alone (ERβ; compound + control): about 4 ×
- stimulation of expression of ERE-tk-luc (fold), compound plus estradiol (ERβ; compound + estradiol): ~6 ×
Substance: emodin [compound 1]
